Measurements: article PMC8119466, “A screen of FDA-approved drugs identifies inhibitors of protein tyrosine phosphatase 4A3 (PTP4A3 or PRL-3)” (Scientific Reports, 2021)

Assays:
[1] = target: T1, recombinant PRL-1 (Homo sapiens, UniProt Q93096); assay: In vitro phosphatase assay (DiFMUP hydrolysis), PRL-1; conditions: FDA-approved drug screen; note: test concentration or dose not given here
T1 sequence (Q93096 1-173): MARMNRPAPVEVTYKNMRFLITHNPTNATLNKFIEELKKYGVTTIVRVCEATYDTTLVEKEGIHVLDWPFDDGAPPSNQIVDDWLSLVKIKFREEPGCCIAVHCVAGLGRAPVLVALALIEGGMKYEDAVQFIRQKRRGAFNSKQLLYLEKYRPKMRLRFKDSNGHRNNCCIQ

[2] = target: T2, recombinant PRL-2 (Homo sapiens, UniProt Q12974); assay: In vitro phosphatase assay (DiFMUP hydrolysis), PRL-2;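 note: PRL-2 activity read as DiFMUP hydrolysis after 20 min at room temperature with drug, enzyme first pre-reduced at 4 °C for 20 min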
T2 sequence (Q12974 1-167): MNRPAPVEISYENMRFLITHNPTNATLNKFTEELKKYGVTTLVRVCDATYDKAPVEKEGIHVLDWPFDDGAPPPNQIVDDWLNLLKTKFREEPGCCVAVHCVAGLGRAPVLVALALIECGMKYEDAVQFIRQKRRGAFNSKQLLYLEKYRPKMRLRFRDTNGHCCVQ

| SMILES | % Phosphatase Activity (compared to DMSO) PRL-1 [1] [%] | % Phosphatase Activity (compared to DMSO) PRL-2 [2] [%] |
| --- | --- | --- |
| CC1(C)S[C@@H]2[C@H](NC(=O)[C@H](N)c3ccc(O)cc3)C(=O)N2[C@H]1C(=O)O [Amoxicillin] | 125 |  |
| CN/C(=N/CCSCc1nc[nH]c1C)NC#N [Cimetidine] |  | 113 |
